Reference: patent US6358883B1, “Pesticidal and parasiticidal use of 1-aryl-1-(substituted thio, sulfinyl and sulfonyl)-2-nitroethane compounds” (American Cyanamid Company, priority 1998, dated 2002)

System: Root-knot nematode, Meloidogyne incognita J2 larvae
Details: potted tomato, scored 4 weeks following inoculation
Excerpt: Soil Nematicide Assay Targeting Root-knot Nematode, Meloidogyne Incognita on Potted Tomato
The test compound is solubilized in acetone and diluted with water to the required test concentration. Silty loam soil in a 3 inch pot with a 3-week-old tomato transplant is drenched with the test solution. Four thousand root-knot nematode Meloidogyne incognita J2 larvae are dispensed in a aqueous suspension onto the soil. The pots are kept in the greenhouse and 4 weeks following inoculation of the pots, plant roots are washed free of soil and scored for the degree of root galling using the root-knot galling index identified below.

Q: Which results are given for `CCCSP(=O)(OCC)SCCC` [Ethoprophos, reference compound]?
A: Galling Index (Rate 10 ppm soil drench): 0 (0); Galling Index (Rate 25 ppm soil drench): 0^1 (0); Galling Index (Rate 50 ppm soil drench): 0^1 (0)

Read-outs that look alike come from different tables or passages of the source.
